The values below are quoted from earlier work in patent US20090270306A1, “Glass Storage” (priority 2005, published 2009).

What is called pKa is the pH at which an ionisable group is half protonated.

The conditions of the data set: initial pKa, buffers tested for stain inhibitor performance (Table 1); cited from earlier work.

With Zinc Sulphate, the pKa is 7.7.
